In US6649753B2, “Stable salts of S-adenosyl-L-methionine (SAMe) and the process for their preparation” (Orchid Chemicals & Pharmaceuticals Ltd., priority 2001, dated 2003):

Type: physicochemical
Settings: for SAMe Residual Ratio: 40-45° C. with 70-75% Relative Humidity
Experimental: Assessment of stability of the above SAMe salts has been done as per the ICH guidelines at 40-45° C. with 70-75% Relative Humidity and an improved HPLC method has been employed which resolves all the impurities formed on degrading SAMe (Table I). This method of HPLC analysis is the best method known so far to study stability of SAMe and has been validated as per the ICH guidelines. The details of the HPLC method followed and the accelerated stability report are as under:
Column=YMC-ODS-A, 4.6 mm×25 cm, C-18, 5 micron
Buffer=A mixture of 0.02 M citric acid & 0.01 M sodium dihydrogen orthophosphate
Mobile phase=using acetonitrile water with citric acid buffer
Detector=UV at 254 nm wavelength
Flow rate=1.5 ml per min.
Column temperature=25° C.
The percentage of SAMe after storage at the specified temperature was determined using the content of SAMe after storage and the content of SAMe before storage, i.e., initial content of SAMe in the corresponding salt using the following equation: [formula]

[1] = accelerated storage period 30 days
[2] = accelerated storage period 60 days
[3] = accelerated storage period 90 days

In the case of “SAMe disulfate salt with analogous hydroquinone-2,3-disulphonic acid or its sodium salt”, the “stability at accelerated temperatures” value is reported as “poor stability”.
With “SAMe disulfate phenol-2,4,6-trisulfonate or its sodium salt [Salt III]” the “SAMe Residual Ratio” value [1] was 98.0%, the “SAMe Residual Ratio” value [2] was 96.3% and the “SAMe Residual Ratio” value [3] was 95.8%.
With “SAMe disulfate resorcinol-4,6-disulfonate or its sodium salt [Salt I]” the “SAMe Residual Ratio” value [1] was 97.7%, the “SAMe Residual Ratio” value [2] was 95.5% and the “SAMe Residual Ratio” value [3] was 95.0%.

Where two headings read alike, the source gives them in different places.
